The text below walks through data of ChEMBL document CHEMBL1255503, “Biochemical and biophysical characterization of unique switch pocket inhibitors of p38α” (Bioorg Med Chem Lett, 2010).

Protein sequences, listed by entry. Tags and fused reporters are not part of them.
UniProt Q16539, whole entry: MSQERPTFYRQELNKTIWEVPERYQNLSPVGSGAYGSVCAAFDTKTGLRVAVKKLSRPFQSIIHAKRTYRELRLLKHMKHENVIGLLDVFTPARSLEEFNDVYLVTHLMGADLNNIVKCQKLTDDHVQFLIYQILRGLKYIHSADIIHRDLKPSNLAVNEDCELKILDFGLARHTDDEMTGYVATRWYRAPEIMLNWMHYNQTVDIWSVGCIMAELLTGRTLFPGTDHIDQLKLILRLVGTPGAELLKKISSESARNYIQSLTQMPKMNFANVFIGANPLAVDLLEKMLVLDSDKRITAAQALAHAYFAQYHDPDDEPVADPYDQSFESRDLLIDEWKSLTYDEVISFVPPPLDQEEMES

As a reminder, the Ki is the equilibrium dissociation constant of an inhibitor or competing ligand from its target. High values mean weaker binding, low ones tighter binding.

This experiment deals with Mitogen-activated protein kinase 14 (Homo sapiens, UniProt Q16539).
Compound `CCN(CCOC)C(=O)c1cc(-n2nc(C(C)(C)C)cc2NC(=O)Nc2cccc3ccccc23)ccc1C` had a Ki of 1390 nM.

Compound `Cc1ccc(-n2nc(C(C)(C)C)cc2NC(=O)Nc2cccc3ccccc23)cc1C(=O)NCCc1c[nH]c2ccccc12` yielded a Ki of 1400 nM.

Take `Cc1ccc(-n2nc(C(C)(C)C)cc2NC(=O)Nc2cccc3ccccc23)cc1C(=O)NCCc1ccc(N)cc1`: the Ki was 1450 nM.

The compound `Cc1ccc(-n2nc(C(C)(C)C)cc2NC(=O)Nc2cccc3ccccc23)cc1C(=O)NCc1ccncc1` had a Ki of 176 nM.
